The test system of the assay is VEGFR2. Put plainly: VEGFR2 expression in C26 tumors. It is filed as in vivo, mouse. As to conditions: C26 model, 100 mg/kg p.o. for two weeks; P=0.0353.

`CCN(CC)CCNC(=O)c1c(C)[nH]c(/C=C2\C(=O)Nc3ccc(F)cc32)c1C` [sunitinib]: the VEGFR2 expression entry is given as “suppressed”.

Values taken from publication PMC5197073 (Theranostics, 2017).
